The values that follow are results of earlier work, collected in US20040186052A1, “Cytomodulating peptides and methods for treating neurological disorders” (priority 2002, published 2004).

One series has as its system PC12 cells. As to conditions: cited from earlier work.
The next series concerns ALS. As to conditions: in vivo; cited from earlier work.

Take `O=[N+]([O-])c1ccc(-c2nc(-c3ccncc3)c(-c3ccc(F)cc3)[nH]2)cc1` [PD169316]: the cell death entry in the series with PC12 cells is “inhibited”.

For the compound `Nc1nc2ccc(OC(F)(F)F)cc2s1` [riluzole], the extension of survival result in the series on ALS is recorded as “less than a year”.
